Earlier results as cited in patent US11717549B2, “Steviol glycoside solubility enhancers” (CARGILL, INCORPORATED, priority 2017, dated 2023).

Settings: temperature 23 ° C.; cited from earlier work

O=C(O)c1c([N+](=O)[O-])cc([N+](=O)[O-])cc1[N+](=O)[O-]
solubility (ppm): 1.97E+04 ppm

This is a selection: effects in other tests are not listed, and their absence says nothing.
